# Earlier results as cited in patent publication US20160281133A1, “STABILIZATION AND ISOLATION OF EXTRACELLULAR NUCLEIC ACIDS” (QIAGEN GMBH, priority 2013, published 2016).
# Tested on: protein tyrosine phosphatase
# Settings: cited from earlier work
smiles,measurement,value
O=[As]c1ccccc1 (stereo not shown),IC50,18 µM
